Patent publication US12275729B2 (Merck Sharp & Dohme LLC, priority 2017, dated 2025)
pIC50: −log10 of the molar value.

By UniProt entry, the sequences of proteins in these tests, tags left out.
UniProt P14902, whole entry: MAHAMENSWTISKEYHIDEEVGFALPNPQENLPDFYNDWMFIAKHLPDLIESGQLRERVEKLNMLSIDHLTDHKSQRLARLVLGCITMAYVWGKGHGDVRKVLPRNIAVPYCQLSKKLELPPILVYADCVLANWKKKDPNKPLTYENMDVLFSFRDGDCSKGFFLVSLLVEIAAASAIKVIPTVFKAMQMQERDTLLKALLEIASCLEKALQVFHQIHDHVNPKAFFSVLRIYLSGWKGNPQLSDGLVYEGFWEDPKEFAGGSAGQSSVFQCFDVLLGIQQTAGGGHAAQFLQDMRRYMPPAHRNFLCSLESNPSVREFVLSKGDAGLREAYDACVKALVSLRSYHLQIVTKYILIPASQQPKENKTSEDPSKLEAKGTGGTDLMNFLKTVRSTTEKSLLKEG

Target: IDO1 (Homo sapiens, UniProt P14902)
Assay: IDO1 Cellular Assay in HeLa Cells Stimulated with IFNγ
Format: cell-based
Conditions: read-out: Hela IC50, about 48 hours

Row | pIC50 | Compound
1 | 8.37 | Cc1nccc(N2CCCc3nc(C(C)(C)NC(=O)c4ccc(Cl)cc4)ccc32)n1
2 | 6.98 | CC(C)(NC(=O)c1ccc(F)cc1)c1ccc2c(n1)CCCN2C(=O)C1CC1
